Data published in patent publication US20170198006A1, “PRMT5 INHIBITORS AND USES THEREOF” (Epizyme, Inc., priority 2014, published 2017).

By UniProt entry, the sequences of proteins in these tests, tags left out. Chains listed by the source or under a name are the forms on record and can include a tag or linker. Residues count along the entry.
UniProt O14744, 2-637 with tags or gaps: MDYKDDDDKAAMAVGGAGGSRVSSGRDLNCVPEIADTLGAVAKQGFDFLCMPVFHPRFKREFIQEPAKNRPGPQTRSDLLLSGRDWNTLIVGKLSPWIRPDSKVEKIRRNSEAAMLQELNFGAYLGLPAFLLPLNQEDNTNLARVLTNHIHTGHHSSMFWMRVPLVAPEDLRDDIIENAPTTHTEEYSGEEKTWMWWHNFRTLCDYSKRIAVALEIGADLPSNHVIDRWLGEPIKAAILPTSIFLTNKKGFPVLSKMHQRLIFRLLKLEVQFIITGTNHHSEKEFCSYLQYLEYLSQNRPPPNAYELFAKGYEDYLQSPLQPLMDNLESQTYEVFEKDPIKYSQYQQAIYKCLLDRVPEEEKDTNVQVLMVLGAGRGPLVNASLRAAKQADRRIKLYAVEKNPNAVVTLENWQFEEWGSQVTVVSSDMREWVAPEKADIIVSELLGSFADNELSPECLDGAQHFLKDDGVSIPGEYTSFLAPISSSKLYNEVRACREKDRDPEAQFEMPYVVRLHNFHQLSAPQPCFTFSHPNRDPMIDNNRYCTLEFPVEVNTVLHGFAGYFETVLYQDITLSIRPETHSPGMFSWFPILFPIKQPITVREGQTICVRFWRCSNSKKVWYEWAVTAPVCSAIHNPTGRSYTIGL
UniProt Q9BQA1, 2-342 with tags or gaps partner limits assumed: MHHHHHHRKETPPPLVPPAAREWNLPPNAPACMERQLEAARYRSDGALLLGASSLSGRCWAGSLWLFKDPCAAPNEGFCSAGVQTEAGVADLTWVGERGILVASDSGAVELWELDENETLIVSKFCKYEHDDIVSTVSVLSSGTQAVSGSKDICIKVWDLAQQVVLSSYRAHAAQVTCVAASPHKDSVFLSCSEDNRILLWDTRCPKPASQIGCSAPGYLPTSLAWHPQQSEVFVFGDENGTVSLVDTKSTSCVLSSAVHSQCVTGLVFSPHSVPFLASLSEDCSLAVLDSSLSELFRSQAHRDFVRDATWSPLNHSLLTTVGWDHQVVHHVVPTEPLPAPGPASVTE

molecular target: PRMT5/MEP50 (Homo sapiens, UniProt O14744); assay: PRMT5 Biochemical Assay (PRMT5/MEP50 enzyme assay on histone H4 peptide substrate, 3H-SAM Flashplate); conditions: read-out: Biochemical IC50

| IC50 | Structure (SMILES) |
| --- | --- |
| 101 to 1000 nM | CN(CCN1CCCN(c2ccccn2)CC1)C[C@H]1OC(n2cnc3c(N)ncnc32)[C@H](O)[C@@H]1O (stereo partly shown) |
| < 100 nM | NCCN(CCCc1cnc[nH]1)C[C@H]1O[C@@H](n2cnc3c(N)ncnc32)[C@H](O)[C@@H]1O |
| < 100 nM | CN(CCNc1ccccc1)C[C@H]1O[C@@H](n2cnc3c(N)ncnc32)[C@H](O)[C@@H]1O |
| 101 to 1000 nM | CN(C[C@H]1C[C@@H](n2ccc3c(N)ncnc32)[C@H](O)[C@@H]1O)[C@H]1C[C@H](c2nc3cc(Cl)c(C(F)(F)F)cc3[nH]2)C1 |
